# Reference: publication doi:10.1101/2024.10.10.617599v1 (biorxiv, 2024)
# Amino acid sequences for entries named in this document (tags omitted). A change or cut given only in a name is not applied to a line headed by its entry.
# UniProt Q9H244: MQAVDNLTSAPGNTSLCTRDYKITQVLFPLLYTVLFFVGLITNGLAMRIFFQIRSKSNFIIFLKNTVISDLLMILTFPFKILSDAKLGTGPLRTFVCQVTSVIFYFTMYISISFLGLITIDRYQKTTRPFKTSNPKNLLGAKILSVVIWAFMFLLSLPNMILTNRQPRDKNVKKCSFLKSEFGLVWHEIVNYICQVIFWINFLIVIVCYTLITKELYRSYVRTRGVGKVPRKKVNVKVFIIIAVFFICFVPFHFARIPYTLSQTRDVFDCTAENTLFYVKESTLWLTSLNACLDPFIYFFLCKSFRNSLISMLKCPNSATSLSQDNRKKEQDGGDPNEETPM
# Target: hP2Y12R (Homo sapiens, UniProt Q9H244)
# Test: radioligand saturation binding, HEK […] membranes
compound,measurement,value
"CCOC(=O)c1cc(C#N)c(N2CC(NC(=O)NS(=O)(=O)c3ccc(Cl)s3)C2)nc1C [AZ12464237, Ethyl 6-(3-(3-((5-chlorothiophen-2-yl)sulfonyl)ureido)azetidin-1-yl)-5-cyano-2-methylnicotinate]",Kd,3.12 ± 0.7 nM
